US20230357134A1, “AGENTS FOR USE IN THE TREATMENT OF AMYLOIDOSIS” (UCL BUSINESS LTD, priority 2020, published 2023)

Assays:
[1] = Rat oral pharmacokinetics; settings: 5 mpk
Rat IV pharmacokinetics = settings: 1 mpk
[2] = target: T1, recombinant Val122Ile TTR (Homo sapiens, UniProt P02766, V142I); assay: Mechano-enzymatic fibrillogenesis, TTR aggregation by turbidity at 400 nm; assay type: biochemical; settings: equimolar ligand, Val122Ile TTR 9 μM, trypsin, 96 h; 100 % = protein without ligand; mean (SD)
isolated wild type TTR = isolated wild type TTR (Homo sapiens, UniProt P02766); assay: Displacement of 125I-T4 from isolated wild type TTR in buffer; settings: concentration of ligand reducing binding of 125I-T4 by TTR by 50%, 125 nM TTR, pH 8.0, overnight 4° C., mean of at least 3 replicates; for IC50: read-out: D50 buffer
[3] = target: T1, recombinant Val122Ile TTR; assay: Mechano-enzymatic fibrillogenesis, TTR amyloid by ThT emission fluorescence; assay type: biochemical; settings: equimolar ligand, 96 h pellets, normalized to 100 % without ligand, mean (SD)
[4] = target: TTR in whole human plasma (Homo sapiens, UniProt P02766); assay: Displacement of 125I-T4 from TTR in normal human plasma; assay type: binding; settings: read-out: D50 plasma, wild type TTR, 30 min 37° C. with ligand, immunoprecipitation, mean of at least 3 replicates
[5] = target: Recombinant human wild type TTR (Homo sapiens, UniProt P02766); assay: Ligand binding strength by native mass spectrometry
[6] = target: native recombinant wild type TTR (Homo sapiens, UniProt P02766); assay: Kinetics of ligand binding by TTR (stopped flow quenching of intrinsic fluorescence)
(2H, 13C, 15N) TTR = (2H, 13C, 15N) TTR (Homo sapiens, UniProt P02766); assay: 2D NMR [1H,15N] TROSY of TTR-ligand complexes; settings: equimolar ligand, 90 μM TTR, PBS pH 7.4, 310K

O=C(O)c1ccc2nc(-c3cc(Cl)cc(Cl)c3)oc2c1
Rat Oral Cmax [1]: 20066 ng/mL
Rat IV PK t½ (Rat IV pharmacokinetics): 16.4 h

O=C(O)CCc1cc(Cl)c(OCCCOCCOc2c(Cl)cc(Nc3ccccc3C(=O)O)cc2Cl)c(Cl)c1
% Aggregation (Turbidity method) [2]: 5.76 (2.79) %
Rat Oral Cmax [1]: 1630 ng/mL
IC50 (isolated wild type TTR): 100 nM
% Aggregation (Fluorescence method) [3]: 5.21 (3.55) %
Rat IV PK t½ (Rat IV pharmacokinetics): 23 h
IC50 [4]: 1140 nM

O=C(O)CCc1cc(Cl)c(OCCCOCCCOc2c(Cl)cc(Nc3ccccc3C(=O)O)cc2Cl)c(Cl)c1
% Aggregation (Turbidity method) [2]: 8.64 (5.16) %
displacement of ligand from preformed TTR complex by T4 ([5]; four-fold molar excess of T4, MS immediately and after 24 h): only a small amount of T-304 is displaced from TTR after 24 h
dissociation voltage ([5]; lowest cone voltage at which apo TTR is at least 10% of holo TTR, gas phase): 110 V
IC50 (isolated wild type TTR): 74 nM
% Aggregation (Fluorescence method) [3]: 5.74 (3.50) %
rate of quenching reaction relative to mds84 ([6]; T-304 versus mds84): approximately 15 fold
rate constant k of ligand-induced quenching reaction ([6]; TTR and ligand 1 μM each): 0.0123 s⁻¹
burst phase amplitude ([6]; millisecond time scale, fluorescence quenching): 13%
IC50 [4]: 1700 nM
binding mode by NMR chemical shift changes ((2H, 13C, 15N) TTR): occupancy of both binding sites

O=C(O)c1ccc2nc(-c3cc(Cl)c(OCCOCCCOc4c(Cl)cc(Nc5ccccc5C(=O)O)cc4Cl)c(Cl)c3)oc2c1
IC50 (isolated wild type TTR): 180 nM
% Aggregation (Fluorescence method) [3]: 15 (5) %
IC50 [4]: 26200 nM

CCc1oc(-c2cc(Cl)c(OCCCOCCOc3c(Cl)cc(-c4nc(C(=O)O)c(CC)o4)cc3Cl)c(Cl)c2)nc1C(=O)O
D50 buffer (isolated wild type TTR): Weak binding
% Aggregation (Fluorescence method) [3]: 18 (6) %

CCc1oc(-c2cc(Cl)c(OCCOCCCOc3c(Cl)cc(Nc4ccccc4C(=O)O)cc3Cl)c(Cl)c2)nc1C(=O)O
IC50 (isolated wild type TTR): 130 nM
% Aggregation (Fluorescence method) [3]: 7 (2) %
IC50 [4]: 13800 nM
